Target: Clk1 (Homo sapiens, UniProt P49759)
Test: Clk1 kinase inhibition assay (15 μM ATP)
Assay type: biochemical
Parameters: purchased Life Technologies PV3315
Settings: ratio of Clk2 and Clk1 IC50
Source text: Active human Clk1 and Clk2 were purchased from Life Technologies (Catalog No. PV3315 and PV4279, respectively). RS repeat substrate peptide for Clk1 ([…]) was custom synthesized at the Department of Medical Biochemistry and Molecular Biology, Saarland University, Homburg, Germany. […] The larger panel of kinases shown in Table 4 was screened by the SelectScreen Kinase Profiling Service, Thermo Fisher Scientific, Paisley, UK.

The chains behind the UniProt entries cited, without tags or fusion partners. Where a name states a change or a piece, a line headed by the entry shows the natural chain unless it says otherwise.
UniProt P49759: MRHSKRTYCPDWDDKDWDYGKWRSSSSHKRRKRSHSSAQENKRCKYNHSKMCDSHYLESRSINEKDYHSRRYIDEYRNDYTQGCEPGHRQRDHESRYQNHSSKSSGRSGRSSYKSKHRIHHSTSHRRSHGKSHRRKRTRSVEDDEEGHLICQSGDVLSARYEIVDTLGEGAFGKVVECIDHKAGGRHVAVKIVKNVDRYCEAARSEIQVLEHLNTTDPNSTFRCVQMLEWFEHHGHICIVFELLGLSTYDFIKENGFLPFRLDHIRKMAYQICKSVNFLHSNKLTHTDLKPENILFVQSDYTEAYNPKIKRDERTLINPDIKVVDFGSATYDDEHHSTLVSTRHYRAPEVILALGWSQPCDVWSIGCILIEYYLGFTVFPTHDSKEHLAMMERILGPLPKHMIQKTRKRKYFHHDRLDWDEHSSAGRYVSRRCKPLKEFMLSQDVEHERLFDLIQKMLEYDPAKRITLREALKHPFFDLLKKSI

COc1ccc2sc(C(=O)N(C)Cc3cccc(F)c3)cc2c1 [Compound 1b, N-Methyl-N-(3-fluorobenzyl)-5-methoxybenzothiophene-2-carboxamide]
Selectivity Factor for Clk1 over Clk2: 2.7
